Results from patent publication US9315520B2, “2-amino-6-methyl-4,4a,5,6-tetrahydropyrano[3,4-d][1,3]thiazin-8a(8H)-yl-1,3-thiazol-4-yl amides” (Pfizer Inc., priority 2014, dated 2016).

Chains of the proteins cited; added tags and fusions are not shown. Residues count along the entry.
UniProt P56817, 46-457: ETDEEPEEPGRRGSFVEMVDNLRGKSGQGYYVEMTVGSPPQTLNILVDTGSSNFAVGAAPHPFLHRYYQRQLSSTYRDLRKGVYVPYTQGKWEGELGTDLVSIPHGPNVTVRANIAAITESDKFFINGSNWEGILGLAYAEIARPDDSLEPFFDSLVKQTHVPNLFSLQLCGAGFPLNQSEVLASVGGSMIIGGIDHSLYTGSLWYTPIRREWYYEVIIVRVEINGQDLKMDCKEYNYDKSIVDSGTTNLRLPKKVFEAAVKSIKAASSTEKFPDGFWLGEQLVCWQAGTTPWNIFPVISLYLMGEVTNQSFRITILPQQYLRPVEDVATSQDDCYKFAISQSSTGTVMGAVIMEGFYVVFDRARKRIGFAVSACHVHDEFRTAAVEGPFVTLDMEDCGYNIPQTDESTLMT

Target: BACE1 (Homo sapiens (Human), UniProt P56817)
Test: BACE1 Cell-Free Assay (fluorescence polarization)
Assay type: biochemical
Description: Beta-secretase (BACE) is one of the enzymes involved in the generation of the amyloid beta peptide found in the amyloid plaques of Alzheimer's Disease patients. This assay measures the inhibition of the beta-secretase enzyme as it cleaves a non-native peptide.
A synthetic APP substrate that can be cleaved by beta-secretase having N-terminal biotin and made fluorescent by the covalent attachment of Oregon Green at the Cys residue is used to assay beta-secretase activity in the presence or absence of the inhibitory compounds. The substrate is Biotin-[…]^EVEFR-C[Oregon Green]KK-OH. The BACE1 enzyme is affinity purified material from conditioned media of CHO-K1 cells that have been transfected with a soluble BACE construct (BACE1deltaTM96His). Compounds are incubated in a ½ log dose response curve from a top concentration of 100 μM with BACE1 enzyme and the biotinylated fluorescent peptide in 384-well black plates (Thermo Scientific #4318). BACE1 is at a final concentration of 0.1 nM with a final concentration of peptide substrate of 150 nM in a reaction volume of 30 μL assay buffer [100 mM sodium acetate, pH 4.5 (brought to pH with acetic acid), and 0.001% Tween-20]. Plates are covered and incubated for 3 hours at 37° C. The reaction is stopped with the addition of 30 μL of 1.5 μM Streptavidin (Pierce, #21125). After a 10 minute incubation at room temperature, plates are read on a PerkinElmer EnVision for fluorescence polarization (Ex485 nm/Em530 nm). The activity of the beta-secretase enzyme is detected by changes in the fluorescence polarization that occur when the substrate is cleaved by the enzyme.

[1] = Table 4, read-out: BACE1 Cell Free IC50
[2] = geometric mean of 2-4 determinations unless otherwise indicated (b: ≧5; c: single determination), read-out: BACE1 Cell-free Assay IC50

| Structure (SMILES) | IC50 [1] [nM] | IC50 [2] [nM] |
| --- | --- | --- |
| C[C@H]1C[C@H]2CSC(N)=N[C@@]2(c2nc(NC(=O)c3ccc(OC(F)F)cn3)cs2)CO1 [Comparator 1] | > 100000 | – |
| C[C@H]1C[C@H]2CSC(N)=N[C@@]2(c2nc(NC(=O)c3ccc(OC(F)F)cn3)cs2)CO1 [Example 1, N-{2-[(4aR,6S,8aR)-2-amino-6-methyl-4,4a,5,6-tetrahydropyrano[3,4-d][1,3]thiazin-8a(8H)-yl]-1,3-thiazol-4-yl}-5-(difluoromethoxy)pyridine-2-carboxamide] | 41 | 41 |
| C[C@H]1C[C@H]2CSC(N)=N[C@@]2(c2nc(NC(=O)c3nn(C(F)F)cc3Cl)cs2)CO1 [Example 6, N-{2-[(4aR,6S,8aR)-2-amino-6-methyl-4,4a,5,6-tetrahydropyrano[3,4-d][1,3]thiazin-8a(8H)-yl]-1,3-thiazol-4-yl}-4-chloro-1-(difluoromethyl)-1H-pyrazole-3-carboxamide] | – | 4 |
| C[C@H]1C[C@H]2CSC(N)=N[C@@]2(c2nc(NC(=O)c3ccc(Cl)cn3)cs2)CO1 [Example 7, N-{2-[(4aR,6S,8aR)-2-amino-6-methyl-4,4a,5,6-tetrahydropyrano[3,4-d][1,3]thiazin-8a(8H)-yl]-1,3-thiazol-4-yl}-5-chloropyridine-2-carboxamide] | 33 | 33 |
| C[C@H]1C[C@H]2CSC(N)=N[C@@]2(c2nc(NC(=O)c3coc(C(F)F)n3)cs2)CO1 [Example 8, N-{2-[(4aR,6S,8aR)-2-amino-6-methyl-4,4a,5,6-tetrahydropyrano[3,4-d][1,3]thiazin-8a(8H)-yl]-1,3-thiazol-4-yl}-2-(difluoromethyl)-1,3-oxazole-4-carboxamide] | – | 11 |
| C[C@H]1C[C@H]2CSC(N)=N[C@@]2(c2nc(NC(=O)c3cnn(C4CC4)c3)cs2)CO1 [Example 80, N-{2-[(4aR,6S,8aR)-2-amino-6-methyl-4,4a,5,6-tetrahydropyrano[3,4-d][1,3]thiazin-8a(8H)-yl]-1,3-thiazol-4-yl}-1-cyclopropyl-1H-pyrazole-4-carboxamide] | – | 8070 |
| C[C@H]1C[C@H]2CSC(N)=N[C@@]2(c2nc(NC(=O)c3ccn(C4CC4)n3)cs2)CO1 [Example 84, N-{2-[(4aR,6S,8aR)-2-amino-6-methyl-4,4a,5,6-tetrahydropyrano[3,4-d][1,3]thiazin-8a(8H)-yl]-1,3-thiazol-4-yl}-1-cyclopropyl-1H-pyrazole-3-carboxamide, formate salt] | – | 1660 |

Structures can show the parent of a compound that is named as a salt. Where two headings read alike, the source gives them in different places.
